Three molecules from ChEMBL document CHEMBL1821689, “1,6-Disubstituted indole derivatives as selective human neuronal nitric oxide synthase inhibitors” (Bioorg Med Chem Lett, 2011) can be followed below.

By UniProt entry, the sequences of proteins in these tests, tags left out.
UniProt P29475, whole entry: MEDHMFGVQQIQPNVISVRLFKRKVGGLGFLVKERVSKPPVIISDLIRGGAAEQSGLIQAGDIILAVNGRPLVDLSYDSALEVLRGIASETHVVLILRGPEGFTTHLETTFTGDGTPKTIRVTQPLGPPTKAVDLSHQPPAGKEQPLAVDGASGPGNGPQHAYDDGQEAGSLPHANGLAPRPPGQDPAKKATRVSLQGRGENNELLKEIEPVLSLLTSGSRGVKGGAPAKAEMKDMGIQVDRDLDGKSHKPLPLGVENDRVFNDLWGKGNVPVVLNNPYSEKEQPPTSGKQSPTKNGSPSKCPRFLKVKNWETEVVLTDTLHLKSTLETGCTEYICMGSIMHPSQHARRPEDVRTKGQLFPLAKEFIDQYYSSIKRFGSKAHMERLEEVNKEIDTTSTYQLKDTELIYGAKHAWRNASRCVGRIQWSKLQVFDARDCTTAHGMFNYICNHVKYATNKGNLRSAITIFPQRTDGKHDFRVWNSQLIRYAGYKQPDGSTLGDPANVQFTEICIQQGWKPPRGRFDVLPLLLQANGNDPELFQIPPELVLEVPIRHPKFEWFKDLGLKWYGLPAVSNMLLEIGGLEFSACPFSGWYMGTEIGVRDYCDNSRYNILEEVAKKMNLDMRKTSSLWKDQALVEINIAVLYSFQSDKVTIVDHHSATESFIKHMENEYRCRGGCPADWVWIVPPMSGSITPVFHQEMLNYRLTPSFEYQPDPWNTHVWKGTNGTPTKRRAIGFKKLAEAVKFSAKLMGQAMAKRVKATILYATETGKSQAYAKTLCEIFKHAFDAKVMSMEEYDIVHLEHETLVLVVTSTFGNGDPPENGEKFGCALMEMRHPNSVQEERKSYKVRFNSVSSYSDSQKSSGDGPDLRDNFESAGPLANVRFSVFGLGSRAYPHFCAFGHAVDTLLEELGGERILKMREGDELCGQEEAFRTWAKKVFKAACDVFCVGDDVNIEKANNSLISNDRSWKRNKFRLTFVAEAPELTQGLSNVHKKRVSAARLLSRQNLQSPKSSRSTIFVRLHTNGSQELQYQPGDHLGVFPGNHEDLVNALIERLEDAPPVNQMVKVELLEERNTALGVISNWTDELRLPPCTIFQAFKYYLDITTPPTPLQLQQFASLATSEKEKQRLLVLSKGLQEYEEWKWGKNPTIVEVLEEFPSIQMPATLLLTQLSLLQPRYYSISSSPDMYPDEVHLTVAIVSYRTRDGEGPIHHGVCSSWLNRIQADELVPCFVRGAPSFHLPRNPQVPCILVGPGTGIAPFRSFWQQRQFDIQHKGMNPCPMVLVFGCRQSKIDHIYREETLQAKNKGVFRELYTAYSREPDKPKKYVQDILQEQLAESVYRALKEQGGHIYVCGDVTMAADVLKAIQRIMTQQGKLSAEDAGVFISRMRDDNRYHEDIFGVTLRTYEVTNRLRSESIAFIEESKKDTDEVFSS
UniProt P35228, whole entry, looked up: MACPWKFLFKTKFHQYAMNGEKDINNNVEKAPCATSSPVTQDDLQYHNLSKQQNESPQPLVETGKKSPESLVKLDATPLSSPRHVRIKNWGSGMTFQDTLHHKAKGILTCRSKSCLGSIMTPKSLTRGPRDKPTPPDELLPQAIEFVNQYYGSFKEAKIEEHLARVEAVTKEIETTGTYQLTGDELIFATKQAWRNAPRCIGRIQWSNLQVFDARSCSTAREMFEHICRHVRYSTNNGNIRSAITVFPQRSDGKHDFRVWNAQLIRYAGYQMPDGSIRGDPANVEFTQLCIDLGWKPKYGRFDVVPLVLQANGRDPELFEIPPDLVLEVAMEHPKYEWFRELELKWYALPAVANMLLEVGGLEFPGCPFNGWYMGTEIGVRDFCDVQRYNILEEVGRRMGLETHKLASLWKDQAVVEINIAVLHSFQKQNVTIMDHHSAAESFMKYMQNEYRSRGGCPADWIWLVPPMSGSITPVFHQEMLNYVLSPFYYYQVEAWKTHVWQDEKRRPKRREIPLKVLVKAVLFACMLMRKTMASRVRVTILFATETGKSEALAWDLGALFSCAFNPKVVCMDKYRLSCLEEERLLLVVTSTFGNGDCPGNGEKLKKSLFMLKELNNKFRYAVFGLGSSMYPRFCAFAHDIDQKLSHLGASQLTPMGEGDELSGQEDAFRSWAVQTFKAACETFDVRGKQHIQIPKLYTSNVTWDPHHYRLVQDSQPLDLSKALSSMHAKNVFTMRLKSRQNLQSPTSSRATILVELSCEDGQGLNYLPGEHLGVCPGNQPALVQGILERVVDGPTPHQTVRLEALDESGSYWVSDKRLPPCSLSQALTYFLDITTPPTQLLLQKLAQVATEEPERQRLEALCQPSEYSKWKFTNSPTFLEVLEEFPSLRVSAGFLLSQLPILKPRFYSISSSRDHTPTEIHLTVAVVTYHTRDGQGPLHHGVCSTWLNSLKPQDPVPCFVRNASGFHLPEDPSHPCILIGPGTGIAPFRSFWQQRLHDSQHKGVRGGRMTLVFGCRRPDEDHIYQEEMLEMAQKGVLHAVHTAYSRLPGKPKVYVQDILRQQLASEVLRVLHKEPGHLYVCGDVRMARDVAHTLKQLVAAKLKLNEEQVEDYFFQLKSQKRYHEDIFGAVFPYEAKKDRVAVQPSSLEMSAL

For assay [1], the species on record is Homo sapiens. As to the kind of experiment: Selectivity ratio of IC50 for recombinant human eNOS to IC50 for recombinant human nNOS.
For assay [2], the target named is T1, Nitric oxide synthase 3 (Homo sapiens, UniProt P29474).
T1 sequence (P29474 whole entry): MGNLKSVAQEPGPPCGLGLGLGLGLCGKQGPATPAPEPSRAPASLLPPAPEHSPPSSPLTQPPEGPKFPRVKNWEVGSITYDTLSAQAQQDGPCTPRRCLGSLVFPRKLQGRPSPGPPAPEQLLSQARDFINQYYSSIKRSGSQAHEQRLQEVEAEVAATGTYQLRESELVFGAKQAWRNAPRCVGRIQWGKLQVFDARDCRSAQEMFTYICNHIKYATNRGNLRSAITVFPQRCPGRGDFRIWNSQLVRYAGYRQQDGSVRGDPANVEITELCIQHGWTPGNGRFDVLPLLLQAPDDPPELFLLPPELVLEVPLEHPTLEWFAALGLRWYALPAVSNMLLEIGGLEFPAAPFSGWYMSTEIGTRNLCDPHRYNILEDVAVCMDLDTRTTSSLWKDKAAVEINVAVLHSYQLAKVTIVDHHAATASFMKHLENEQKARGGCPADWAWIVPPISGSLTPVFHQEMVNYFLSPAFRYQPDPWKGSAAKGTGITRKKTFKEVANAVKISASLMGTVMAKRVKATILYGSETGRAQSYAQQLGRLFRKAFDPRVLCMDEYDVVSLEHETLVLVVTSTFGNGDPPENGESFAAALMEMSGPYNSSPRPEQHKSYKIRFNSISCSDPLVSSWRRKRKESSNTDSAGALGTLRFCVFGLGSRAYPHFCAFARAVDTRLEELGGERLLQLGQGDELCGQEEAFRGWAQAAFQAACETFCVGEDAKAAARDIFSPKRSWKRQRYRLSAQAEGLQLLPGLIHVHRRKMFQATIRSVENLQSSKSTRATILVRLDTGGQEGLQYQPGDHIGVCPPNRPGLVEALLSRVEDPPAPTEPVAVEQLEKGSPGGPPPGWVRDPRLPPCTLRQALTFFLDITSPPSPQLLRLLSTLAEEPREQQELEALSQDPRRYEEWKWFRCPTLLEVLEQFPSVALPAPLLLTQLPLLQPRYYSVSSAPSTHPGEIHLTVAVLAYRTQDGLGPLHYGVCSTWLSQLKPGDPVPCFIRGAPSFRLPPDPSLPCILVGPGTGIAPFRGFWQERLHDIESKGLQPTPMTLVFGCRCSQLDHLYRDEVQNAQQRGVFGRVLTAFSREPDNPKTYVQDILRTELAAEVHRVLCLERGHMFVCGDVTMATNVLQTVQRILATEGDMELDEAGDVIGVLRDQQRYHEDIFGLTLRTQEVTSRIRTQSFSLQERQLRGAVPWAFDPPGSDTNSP
As to the kind of experiment: Inhibition of recombinant human eNOS expressed in baculovirus infected insect Sf9 cells assessed as conversion of [3H]-L-arginine into [3H]-L-citrulline by radiometric method.

Assay [3] concerns the target Nitric oxide synthase 1 (Homo sapiens, UniProt P29475). As to the kind of experiment: Inhibition of recombinant human nNOS expressed in baculovirus infected insect Sf9 cells assessed as conversion of [3H]-L-arginine into [3H]-L-citrulline by radiometric method.
Assay [4] addresses Nitric oxide sythases; iNOS & nNOS (Homo sapiens) (UniProt P29475+P35228). As to the kind of experiment: Selectivity ratio of IC50 for recombinant human iNOS to IC50 for recombinant human nNOS.

For `CN(C)CCCn1ccc2ccc(/N=C(\N)c3cccs3)cc21`, the Ratio IC50 in assay [1] stood at 8. For orientation: IC50 means the concentration that gives 50% inhibition. On to `CN(C)CCn1ccc2ccc(N=C(N)c3cccs3)cc21`, for which the results for the IC50 in assay [2] and in assay [3] were 15 µM and 1200 nM, respectively. Take `CN(C)CCn1ccc2ccc(/N=C(\N)c3cccs3)cc21`: the values for the Ratio IC50 in assay [4] and in assay [1] were 50 and 13, respectively.
